Assay: Water-solubility of dye
Assay type: physicochemical
Settings: maximum mass of the dye in a sodium salt form that can be dissolved in 100 g of pure water at 20° C.

With `COc1cc(N=Nc2cccc(S(=O)(=O)O)c2)ccc1NC(=O)Nc1ccc(N=Nc2cccc(S(=O)(=O)O)c2)cc1OC` [C.I. Direct Yellow 132] the “water-solubility of the dye” value was “(12 g )”.

From patent US20170120592A1, “INK JET RECORDING METHOD AND INK JET RECORDING APPARATUS” (CANON KABUSHIKI KAISHA, priority 2015, published 2017)
